The species entered for test [1] is Homo sapiens. The test is described as follows: Selectivity ratio of Ki for human kappa opioid receptor to Ki for human mu opioid receptor.
The species entered for test [2] is Homo sapiens. In words: Selectivity ratio of Ki for human delta opioid receptor to Ki for human mu opioid receptor.

Turning to `C[C@@H](NC(=O)[C@@H](N)Cc1ccc(O)cc1)C(=O)NCC(=O)N(C)[C@@H](Cc1ccccc1)C(=O)NCCO`, the Ratio Ki in the test listed under Homo sapiens [1] amounted to 500; in the test listed under Homo sapiens [2], 2000.

For the origin of these results see ChEMBL document CHEMBL3596173, “Structural Requirements for CNS Active Opioid Glycopeptides” (J Med Chem, 2015).
